Laboratory results from patent publication US20030153056A1, “Glycosyltransferase proteins” (priority 2000, published 2003).

Target: T1, Brainiac β1-3-N-acetylglucosaminyltransferase (Drosophila melanogaster, UniProt Q24157)
T1 construct: The full coding region of Brainiac was prepared by PCR using genomic DNA; made in house; host or cells: High Five insect cells (baculovirus vector pVL1393); microsomal fractions
T1 sequence (Q24157 1-325): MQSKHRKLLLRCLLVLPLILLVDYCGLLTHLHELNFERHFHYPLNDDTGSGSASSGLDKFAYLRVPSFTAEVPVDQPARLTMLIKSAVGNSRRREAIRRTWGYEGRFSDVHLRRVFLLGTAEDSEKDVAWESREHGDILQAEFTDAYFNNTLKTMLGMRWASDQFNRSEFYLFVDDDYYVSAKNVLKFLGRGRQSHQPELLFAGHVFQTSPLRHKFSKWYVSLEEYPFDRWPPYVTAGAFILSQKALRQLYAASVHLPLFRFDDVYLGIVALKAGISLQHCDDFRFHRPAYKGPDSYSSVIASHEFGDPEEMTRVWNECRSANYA
Assay: Substrate specificities of Brainiac β1-3-N-acetylglucosaminyltransferase (acceptor panel, microsomal preparations)
Type: biochemical
Conditions: microsomes of pVL-Brainiac infected High Five cells, background of irrelevant construct subtracted, donor UDP-GlcNAc

Brainiac activity with substrate (substrate 2 mM): 0.05 nmol/h/mg
Brainiac activity with substrate (substrate 20 mM): 0.18 nmol/h/mg
Structure (SMILES): OC[C@H]1O[C@@H](O[C@@H]2[C@@H](CO)O[C@](O)(CO)[C@H]2O)[C@H](O)[C@@H](O)[C@H]1O [Galβ1-4Fru]
